Where “and” joins values, the source holds several entries; their conditions need not be identical. Equal values may be shown once.
Target: Alpha-2C adrenergic receptor (Rattus norvegicus, UniProt P22086)

The chains behind the UniProt entries cited, without tags or fusion partners.
UniProt P22086, whole entry: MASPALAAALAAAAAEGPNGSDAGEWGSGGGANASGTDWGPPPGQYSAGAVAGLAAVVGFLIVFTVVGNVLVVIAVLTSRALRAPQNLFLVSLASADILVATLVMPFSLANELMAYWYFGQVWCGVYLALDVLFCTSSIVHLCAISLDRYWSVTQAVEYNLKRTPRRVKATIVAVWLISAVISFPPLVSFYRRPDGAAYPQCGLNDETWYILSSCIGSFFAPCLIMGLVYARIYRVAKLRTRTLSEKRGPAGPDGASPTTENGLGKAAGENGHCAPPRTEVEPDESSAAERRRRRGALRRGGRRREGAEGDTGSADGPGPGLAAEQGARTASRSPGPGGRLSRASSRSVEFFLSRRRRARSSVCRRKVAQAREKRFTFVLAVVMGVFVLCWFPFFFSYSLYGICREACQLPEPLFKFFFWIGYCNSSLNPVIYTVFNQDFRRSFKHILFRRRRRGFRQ

Ki: 3.3 µM and 1.36 µM
SMILES: CNCC(O)c1ccc(O)c(O)c1 (stereo unspecified) [EPINEPHRINE]
